We go through 24 compounds from the CATMoS acute toxicity set (Mansouri et al. 2021).

One data set can be described thus: Nontoxic (NT; LD50>2,000mg/kg vs. all others). To be noted: rat; in vivo; po.
Regarding `O=[N+]([O-])c1cc([N+](=O)[O-])c2no[n+]([O-])c2c1`, the nontoxic result was “FALSE (not_nontoxic)”.

The nature of the next data set: rat acute oral toxicity. To be noted: in vivo.
The LD50 is the dose at which mortality reaches 50%. `O=[N+]([O-])N1CN([N+](=O)[O-])CN([N+](=O)[O-])CN([N+](=O)[O-])C1` gave a 50% lethal dose (LD50) of 5500 mg/kg.
The same measure, in the same setting: the value for `[C-]#N.[K+]` was 5 mg/kg.
`CCC(C)(OO)OOC(C)(CC)OO` (centres undefined) displayed a 50% lethal dose (LD50) of 484 mg/kg.
Still for that read-out and setting: for `COP(OC)OC` the value was 1600 mg/kg; for `O=[N+]([O-])OCCO[N+](=O)[O-]`, 460 mg/kg; for `ClCCOP(OCCCl)OCCCl`, 100 mg/kg.
The same measure, in the same setting: for `CCOP(OCC)OCC` the value was 1840 mg/kg; for `CCOP(=S)(CC)Oc1cc(Cl)c(Cl)cc1Cl` (centres undefined), 15 mg/kg; for `CCOP(O)OCC`, 3500 mg/kg.
The same measure, in the same setting: the value for `O=[N+]([O-])N1CN([N+](=O)[O-])CN([N+](=O)[O-])C1` was 100 mg/kg.
Regarding `Cc1c([N+](=O)[O-])cc([N+](=O)[O-])cc1[N+](=O)[O-]`, the 50% lethal dose (LD50) amounted to 607 mg/kg.
Still for that read-out and setting: the value for `O=[N+]([O-])OCCOCCO[N+](=O)[O-]` was 753 mg/kg; that for `Cc1ccc([N+](=O)[O-])cc1[N+](=O)[O-]` was 269 mg/kg; that for `Cc1cc([N+](=O)[O-])ccc1[N+](=O)[O-]` was 517 mg/kg.

A further data set in a line: GHS categories as the set defines them, by LD50: 1 up to 5, 2 up to 50, 3 up to 300, 4 up to 2000, 5 above 2000 mg/kg. To be noted: rat; in vivo; po.
In the case of `O=c1nc([N+](=O)[O-])[nH][nH]1`, the GHS category was found to be 5.
The same measure, in the same setting: for `O=[N+]([O-])c1cc([N+](=O)[O-])c(Nc2nc(Nc3c([N+](=O)[O-])cc([N+](=O)[O-])cc3[N+](=O)[O-])c([N+](=O)[O-])cc2[N+](=O)[O-])c([N+](=O)[O-])c1` the value was 5; for `CCC1(C)OOC(C)(CC)OOC(C)(CC)OO1` (centres undefined), 5; for `O=c1[nH]c2ccccc2n1CCCN1CCC(n2c(=O)[nH]c3ccccc32)CC1`, 5.
Same read-out and setting: for `O=[N+]([O-])OC[C@H]1O[C@H](O)[C@H](O[N+](=O)[O-])[C@@H](O[N+](=O)[O-])[C@@H]1O` the value was 5; for `CC(=O)N1CN([N+](=O)[O-])CN([N+](=O)[O-])CN([N+](=O)[O-])C1`, 5.
Take `O=C(O)C1(O)c2ccccc2-c2ccccc21`: the GHS category worked out at 5.
The same measure, in the same setting: for `CCOP(=S)(OCC)c1ccccc1` the value was 4.
On the same count and under the same terms, the value for `COP(=S)(OC)c1ccccc1` was 4.
